# AlphaSeq binding of Ab-95 light chain variants to a spike HR2 peptide

The measurements come from Engelhart et al. 2022 (doi:10.1038/s41597-022-01779-4) through the FLAb antibody collection.

The target is the same throughout: PDVDLGDISGINAS, from the HR2 region of SARS-CoV-2 spike.

Each scFv is VH, the linker GGGGSGGGGSGGGGS, VL, as in the parent Ab-95, and differs from it in the CDRs of the light chain only.
VH: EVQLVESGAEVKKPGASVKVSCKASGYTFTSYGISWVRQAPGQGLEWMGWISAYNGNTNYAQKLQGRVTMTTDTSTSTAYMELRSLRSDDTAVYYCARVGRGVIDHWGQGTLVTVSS
VL: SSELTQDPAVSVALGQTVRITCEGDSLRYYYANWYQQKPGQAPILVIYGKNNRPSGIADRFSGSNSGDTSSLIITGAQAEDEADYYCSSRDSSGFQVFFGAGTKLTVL

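Phage display of a naive human antibody library on the peptide gave the parent. In library AAYL52, one, two or three CDR residues were substituted; doubles and triples were drawn at random. In AlphaSeq, yeast of one mating type display the scFv and yeast of the other type display the target. Pairs that bind mate more often; barcode pairs of the diploids are counted by sequencing. A regression on co-assayed BCL2-family reference pairs converts the normalised counts of each replicate to an apparent Kd. There are three technical replicates.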

The parent's light chain CDRs are EGDSLRYYYAN, GKNNRPS, SSRDSSGFQVF; each variant's own CDRs replace them letter for letter.
Every variant below is changed at V97 of the VL (sequential numbering).
Values are log10 of the apparent Kd in nM; lower means stronger binding.
An entry "nd" has no value in the source: the pair was not observed among the diploids in that replicate. This suggests poor binding but is not conclusive.
Parent in this assay: reference entry 2.31, copy in this library 2.25.

EEDSLRYYYAN / GKNNRCS / SSRDSSGFQQF: nd, nd, 3.38 (controls 2 of 9).
EGDSLRAYYAN / GKNSRPS / SSRDSSGFQEF: nd, nd, nd (controls 0 of 9).
EGDSLRYSYAN / GKNNRPS / SNRDSSGFQHF: 2.58, 2.33, 1.86 (controls 3 of 9).
EGDSLRYYYAN / WSNNRPS / SSRDSSGFQAF: nd, 4.86, 4.16 (controls 2 of 9).
EGDSLRYYYAN / GKHNFPS / SSRDSSGFQLF: nd, nd, nd (controls 3 of 9).
EGDSLRYYYAN / IKNNRPS / SSRTSSGFQEF: nd, nd, nd (controls 2 of 9).
EGDSLRKYYAN / GKNNRPS / SSNDSSGFQYF: nd, 4.32, nd (controls 0 of 9).
EGDSLRYKYAN / GKSNRPS / SSRDSSGFQPF: 2.12, 2.09, 2.03 (controls 2 of 9).
EKDSLRYYYSN / GKNNRPS / SSRDSSGFQNF: 3.06, nd, 2.80 (controls 1 of 9).
EGDSLRYYYAN / GKNNRPS / SSRDSSSFGEF: 3.17, 3.39, 4.80 (controls 5 of 9).
EGYSLRYYYTN / GKNNRPS / SSRDSSGFQEF: 2.69, 2.78, 3.17 (controls 4 of 9).
EGDSLRYYYAN / GKDNRPS / SSRHSSGFQLF: 3.00, nd, 3.02 (controls 2 of 9).
EGDSLRYDYAN / GKNIRPS / SSRDSSGFQRF: 1.71, 1.65, 1.15 (controls 2 of 9).
EGDSLRYYYAN / GIDNRPS / SSRDSSGFQMF: nd, 4.78, nd (controls 1 of 9).
EKDSLRYYYAN / GKNNRPS / SSRDSDGFQMF: 4.02, nd, 4.25 (controls 2 of 9).
EGDSARYYYAN / GKNNRPS / SWRDSSGFQGF: nd, 3.76, 4.16 (controls 4 of 9).
EHDSLRYEYAN / GKNNRPS / SSRDSSGFQFF: 3.21, 2.89, 3.23 (controls 0 of 9).
EGDSLRYYYAN / GKNNRPS / SSRDSSGFQCQ: 5.45, nd, nd (controls 2 of 9).
CGDSLRYYYAN / GKNNRPS / SSRTSSGFQGF: nd, nd, nd (controls 0 of 9).
EGDSLRYCYAN / GKNNPPS / SSRDSSGFQEF: 3.57, 4.99, 3.91 (controls 3 of 9).
EGDSLRYYYAN / GKNNRPS / PSRDSSGFVPF: nd, 3.87, nd (controls 3 of 9).
EGDSPRYYYAN / GKNNRPS / SSRDSSGFQTF: 3.69, nd, nd (controls 1 of 9).
CGDSLRYYYAN / GKNNRPS / SSRDSSGFQGF: 5.62, nd, nd (controls 2 of 9).
EGDSLNYYYAN / GKNNRPS / SSRDSSGFQRF: 2.52, 3.36, 2.80 (controls 2 of 9).
EGDSLRYYQAS / GKNNRPS / SSRDSSGFQRF: 2.90, 1.81, 1.61 (controls 1 of 9).
EHDSLRYYYAN / GKNNEPS / SSRDSSGFQMF: nd, nd, nd (controls 3 of 9).
EGDSLRYYYAN / GKNNRPS / SSRDSSGFAYW: 2.82, 2.56, 2.92 (controls 1 of 9).
EGDSLRYYYAN / GKNNRPS / RSRDSEGFQTF: nd, nd, nd (controls 2 of 9).
EGDSVRYYYAN / GKNNRPS / SSRDSSGFQFF: 3.83, 4.31, nd (controls 3 of 9).
EGDSLRYLYAN / GKNNRFS / SSRDSSGFQCF: 3.32, nd, nd (controls 4 of 9).
EGDSLRYPYAN / GKNNRPS / SSRWSSGFQGF: 2.53, 2.77, 2.55 (controls 4 of 9).
EGDSLRYYYAN / GKNMRPS / SSRDYSGFQKF: 2.36, 2.41, 1.89 (controls 2 of 9).
EGDSLRYYYAN / GKMNRPY / SSRDSSGFQDF: 4.17, 4.53, nd (controls 3 of 9).
EGDSLRYYYAN / GKNNRRS / SSRMSSGFQMF: nd, nd, nd (controls 1 of 9).
EGDSLRYYYAN / GKNNRPS / SSRDSSGFQMF: 3.04, 3.98, nd (controls 1 of 9).
EGDKLRYYYAN / NKNNRPS / SSRDSSGFQQF: 3.78, 3.20, 3.35 (controls 4 of 9).
EGDSLRYWYAN / GKNNRPS / SSRDSSGFQMF: 3.24, 3.36, nd (controls 5 of 9).
EGDSLRYYYAN / GKNNRPS / SSRDLSGFQIF: 2.34, 2.60, 2.60 (controls 5 of 9).
EGDSLRYYYAN / GKNNRPS / SSRDSSDFQCF: 2.18, 2.29, 1.96 (controls 2 of 9).
EGDSLRYYYAN / GKNNHPS / SSRDSSGFQAF: 2.69, 2.83, 2.96 (controls 2 of 9).
EGASLRYYYAN / GKNNRPS / SSRDSSGFQRW: 2.64, 3.19, 3.84 (controls 4 of 9).
EGDALRYNYAN / GKNNRPS / SSRDSSGFQLF: 1.29, 1.10, 0.84 (controls 5 of 9).
EGDSLRYYYAN / GKNLRPS / SSRDSGGFQRF: 3.79, 3.72, 3.36 (controls 4 of 9).
EGDSVRYYYAN / GKNNRPS / SSRDSYGFQPF: nd, nd, nd (controls 1 of 9).
EGDSLRYYYAN / GKNIRPS / SSRDYSGFQYF: 4.51, nd, 3.71 (controls 1 of 9).
WGDSLRYYYAN / GKNNRPS / SSRDSSGIQIF: 3.91, 2.60, 2.42 (controls 4 of 9).
EGDSLRYEYAN / GKNNRPS / SSRDSSGLQDF: 2.75, 2.71, nd (controls 0 of 9).
EGDSLRYAYAN / GKNNRPS / SSRDSSRFQSF: 1.52, 1.45, 1.15 (controls 5 of 9).
EGDSLRYYYAN / GKNNRPS / SSRDSSGDQDF: 2.68, 2.87, 2.27 (controls 2 of 9).
EGDSLRYYYAN / GKNNRPS / WSRDSSGCQSF: 2.38, 2.02, 2.44 (controls 2 of 9).

The first 8 entries again:

CDR-L1	CDR-L2	CDR-L3	log10 Kd, replicates	signal with controls
EEDSLRYYYAN	GKNNRCS	SSRDSSGFQQF	nd, nd, 3.38	2/9
EGDSLRAYYAN	GKNSRPS	SSRDSSGFQEF	nd, nd, nd	0/9
EGDSLRYSYAN	GKNNRPS	SNRDSSGFQHF	2.58, 2.33, 1.86	3/9
EGDSLRYYYAN	WSNNRPS	SSRDSSGFQAF	nd, 4.86, 4.16	2/9
EGDSLRYYYAN	GKHNFPS	SSRDSSGFQLF	nd, nd, nd	3/9
EGDSLRYYYAN	IKNNRPS	SSRTSSGFQEF	nd, nd, nd	2/9
EGDSLRKYYAN	GKNNRPS	SSNDSSGFQYF	nd, 4.32, nd	0/9
EGDSLRYKYAN	GKSNRPS	SSRDSSGFQPF	2.12, 2.09, 2.03	2/9

Background: pairings of library AAYL52 with three empty control strains gave a value in 28% of cases (median 3.91, 5th percentile 2.90). Values in that range, when seen in few replicates, are hard to tell from nonspecific mating. Also given: how often the same scFv was detected with the empty control strains.